Test results from PubChem BioAssay AID1508609 (The Scripps Research Institute Molecular Screening Center, 2020).
The entries are a selection whose mix differs from that of the whole data set. The source made the active and inactive calls.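 Rule for the calls: active = mean percent activation across replicates above the confirmation screen cutoff of 4.91%; inactive = the rest.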

Sequences of proteins named here, by UniProt entry; tags and fusion partners are left off.
UniProt Q8TDV0, whole entry: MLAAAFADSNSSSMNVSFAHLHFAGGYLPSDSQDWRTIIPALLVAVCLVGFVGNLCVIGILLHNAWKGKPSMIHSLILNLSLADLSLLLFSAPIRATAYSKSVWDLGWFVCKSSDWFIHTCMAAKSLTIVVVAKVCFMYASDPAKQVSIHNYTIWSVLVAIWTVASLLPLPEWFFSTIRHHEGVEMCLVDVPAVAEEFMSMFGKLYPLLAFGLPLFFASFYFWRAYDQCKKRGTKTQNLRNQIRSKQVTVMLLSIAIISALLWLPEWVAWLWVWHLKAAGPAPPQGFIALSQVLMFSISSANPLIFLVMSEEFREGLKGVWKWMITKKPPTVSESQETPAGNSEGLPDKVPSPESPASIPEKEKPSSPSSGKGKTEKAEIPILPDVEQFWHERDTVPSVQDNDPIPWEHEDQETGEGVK

What follows are compounds tested against G-protein coupled receptor 151 (Homo sapiens) (UniProt Q8TDV0) (assay: GPR151 agonism via beta-arrestin recruitment – cell-based, PathHunter beta-arrestin, luminescence, confirmation (AID 1508609)). Conditions: GPR151 PathHunter beta-arrestin cells, 90 min, at 11.2 µM, hits give high values, % of EA-reagent control over plate median.

SMILES | activation
CCCN1CCC(Nc2ccc(Cl)cc2)CC1 | inactive: 2.05%
